Assay results published in patent US20210260033A1, “COMBINED THERAPY WITH ICOS BINDING PROTEINS AND […] INHIBITORS” (GLAXOSMITHKLINE INTELLECTUAL PROPERTY DEVELOPMENT LIMITED, priority 2018, published 2021).

The chains behind the UniProt entries cited, without tags or fusion partners. Where a name states a change or a piece, a line headed by the entry shows the natural chain unless it says otherwise.
UniProt O60678: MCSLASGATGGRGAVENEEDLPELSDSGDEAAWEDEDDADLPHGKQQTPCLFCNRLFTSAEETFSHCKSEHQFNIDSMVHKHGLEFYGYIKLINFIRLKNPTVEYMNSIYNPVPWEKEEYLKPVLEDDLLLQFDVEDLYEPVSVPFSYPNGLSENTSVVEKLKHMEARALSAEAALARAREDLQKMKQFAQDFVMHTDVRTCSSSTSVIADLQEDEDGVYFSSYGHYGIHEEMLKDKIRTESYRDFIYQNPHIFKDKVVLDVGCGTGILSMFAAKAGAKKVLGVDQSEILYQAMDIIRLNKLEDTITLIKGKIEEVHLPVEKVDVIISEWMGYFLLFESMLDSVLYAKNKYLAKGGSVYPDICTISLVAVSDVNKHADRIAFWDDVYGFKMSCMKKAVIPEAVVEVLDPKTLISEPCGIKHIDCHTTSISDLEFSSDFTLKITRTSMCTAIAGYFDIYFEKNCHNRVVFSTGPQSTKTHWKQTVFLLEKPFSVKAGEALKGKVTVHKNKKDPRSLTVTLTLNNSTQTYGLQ
UniProt Q86X55: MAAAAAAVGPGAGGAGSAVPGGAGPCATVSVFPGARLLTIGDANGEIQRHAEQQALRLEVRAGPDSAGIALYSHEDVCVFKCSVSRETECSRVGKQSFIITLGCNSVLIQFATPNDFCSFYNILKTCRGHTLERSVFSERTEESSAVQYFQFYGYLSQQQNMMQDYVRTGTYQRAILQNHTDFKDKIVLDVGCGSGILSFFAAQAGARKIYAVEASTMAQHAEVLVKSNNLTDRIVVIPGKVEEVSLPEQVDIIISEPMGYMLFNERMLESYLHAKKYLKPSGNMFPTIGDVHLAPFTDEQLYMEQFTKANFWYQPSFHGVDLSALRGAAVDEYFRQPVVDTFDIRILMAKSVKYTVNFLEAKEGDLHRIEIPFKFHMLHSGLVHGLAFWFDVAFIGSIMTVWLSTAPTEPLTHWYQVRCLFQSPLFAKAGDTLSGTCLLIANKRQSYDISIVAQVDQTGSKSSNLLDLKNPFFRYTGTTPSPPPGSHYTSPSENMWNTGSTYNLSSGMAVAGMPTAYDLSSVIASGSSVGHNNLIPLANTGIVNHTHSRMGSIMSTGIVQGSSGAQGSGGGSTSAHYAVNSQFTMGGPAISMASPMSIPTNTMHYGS
UniProt Q96LA8, whole entry: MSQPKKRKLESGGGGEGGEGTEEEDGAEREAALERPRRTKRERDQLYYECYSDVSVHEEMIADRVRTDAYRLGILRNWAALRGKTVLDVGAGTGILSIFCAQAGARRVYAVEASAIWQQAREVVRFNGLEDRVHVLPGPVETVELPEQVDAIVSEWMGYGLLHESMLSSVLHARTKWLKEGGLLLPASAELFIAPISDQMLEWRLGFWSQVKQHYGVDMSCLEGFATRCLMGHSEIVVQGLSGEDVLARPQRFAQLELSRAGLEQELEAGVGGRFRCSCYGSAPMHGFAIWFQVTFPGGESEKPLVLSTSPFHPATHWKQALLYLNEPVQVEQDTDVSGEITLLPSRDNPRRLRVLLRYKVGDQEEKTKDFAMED
UniProt Q9NR22, whole entry: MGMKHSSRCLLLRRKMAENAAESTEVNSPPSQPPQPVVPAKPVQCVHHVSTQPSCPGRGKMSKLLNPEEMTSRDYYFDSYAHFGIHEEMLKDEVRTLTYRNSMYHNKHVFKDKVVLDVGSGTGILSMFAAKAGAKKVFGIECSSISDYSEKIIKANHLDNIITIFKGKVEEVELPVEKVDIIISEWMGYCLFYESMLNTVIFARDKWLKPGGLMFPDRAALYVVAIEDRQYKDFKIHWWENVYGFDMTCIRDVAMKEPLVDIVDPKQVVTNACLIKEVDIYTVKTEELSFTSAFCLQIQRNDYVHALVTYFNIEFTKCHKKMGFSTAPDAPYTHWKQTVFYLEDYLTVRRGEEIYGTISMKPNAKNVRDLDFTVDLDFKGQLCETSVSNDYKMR

What was measured:
Conditions in all cases: 60 minute SAM:Enzyme:Compound A preincubation
[1] = target: PRMT3 (Homo sapiens, UniProt O60678)
[2] = target: PRMT4 (Homo sapiens, UniProt Q86X55)
[3] = target: PRMT6 (Homo sapiens, UniProt Q96LA8)
[4] = target: PRMT8 (Homo sapiens, UniProt Q9NR22)

Measured: inhibition of activity

CCOCC1(COCC)CCC(c2n[nH]cc2CN(C)CCNC)CC1 [Compound A]
inhibited: all assays above
